ChEMBL document CHEMBL2074255, “Human intestinal H+/peptide cotransporter. Cloning, functional expression, and chromosomal localization” (J Biol Chem, 1995)

Biological target: T1, Solute carrier family 15 member 1 (Homo sapiens) (UniProt P46059)
T1 sequence (whole entry): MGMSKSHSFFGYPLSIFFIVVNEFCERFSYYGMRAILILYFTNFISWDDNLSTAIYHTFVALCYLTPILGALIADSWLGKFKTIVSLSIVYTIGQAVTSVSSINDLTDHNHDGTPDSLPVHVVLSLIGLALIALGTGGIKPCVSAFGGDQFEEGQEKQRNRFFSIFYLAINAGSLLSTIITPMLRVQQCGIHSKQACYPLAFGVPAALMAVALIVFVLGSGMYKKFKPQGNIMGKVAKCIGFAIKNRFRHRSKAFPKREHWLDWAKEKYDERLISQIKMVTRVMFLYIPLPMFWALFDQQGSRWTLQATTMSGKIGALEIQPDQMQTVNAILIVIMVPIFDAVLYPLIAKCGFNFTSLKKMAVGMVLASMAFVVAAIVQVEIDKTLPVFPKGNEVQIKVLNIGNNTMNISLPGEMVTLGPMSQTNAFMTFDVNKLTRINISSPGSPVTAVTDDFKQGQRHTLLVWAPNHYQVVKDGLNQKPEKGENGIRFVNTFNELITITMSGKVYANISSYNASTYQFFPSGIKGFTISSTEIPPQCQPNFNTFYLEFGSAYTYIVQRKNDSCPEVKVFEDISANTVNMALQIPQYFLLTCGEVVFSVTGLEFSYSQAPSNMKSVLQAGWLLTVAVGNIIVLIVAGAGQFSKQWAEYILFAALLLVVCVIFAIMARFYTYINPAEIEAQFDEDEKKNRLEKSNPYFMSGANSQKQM
Assay: TP_TRANSPORTER: inhibition of Gly-Sar uptake (Gly-Sar: 20 uM, Ala-Pro-Gly: 10000 uM) in PEPT1-expressing HeLa cells
Assay type: functional, cell-based
Design: scale not given: the % may be the effect or the level left

With C[C@H](N)C(=O)N1CCC[C@H]1C(=O)NCC(=O)O the Activity was 9%.
